Here are results for one compound from patent US20060083680A1, “Diphenyl ether derivatives and their use for imaging serotonin transporters” (The Trustees of the University of Pennsylvania, priority 2004, published 2006).

By UniProt entry, the sequences of proteins in these tests, tags left out.
UniProt P31652, whole entry: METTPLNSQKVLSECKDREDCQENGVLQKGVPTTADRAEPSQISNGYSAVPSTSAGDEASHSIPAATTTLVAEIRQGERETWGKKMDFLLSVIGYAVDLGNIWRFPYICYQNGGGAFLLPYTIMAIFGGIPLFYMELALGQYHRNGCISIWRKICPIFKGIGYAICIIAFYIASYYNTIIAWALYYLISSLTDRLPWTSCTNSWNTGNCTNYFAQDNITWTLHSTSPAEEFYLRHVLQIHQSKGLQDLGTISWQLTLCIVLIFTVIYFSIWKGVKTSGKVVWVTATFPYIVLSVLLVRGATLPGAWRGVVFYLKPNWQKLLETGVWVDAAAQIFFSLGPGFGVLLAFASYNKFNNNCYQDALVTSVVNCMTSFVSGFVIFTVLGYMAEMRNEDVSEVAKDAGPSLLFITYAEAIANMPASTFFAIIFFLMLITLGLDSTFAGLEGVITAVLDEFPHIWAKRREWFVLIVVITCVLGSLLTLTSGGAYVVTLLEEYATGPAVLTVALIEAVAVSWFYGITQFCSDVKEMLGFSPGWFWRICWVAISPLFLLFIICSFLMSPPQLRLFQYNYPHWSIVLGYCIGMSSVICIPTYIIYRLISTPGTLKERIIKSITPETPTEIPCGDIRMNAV

SMILES strings stand for the structures.

A short description of data set [1]: Biodistribution in rats after iv injection (organs).
Data set [2] has as its target serotonin transporters (Rattus norvegicus, UniProt P31652). Kind of data set: Regional brain distribution and specific binding ratio in rats. Conditions: iv.

Regarding `CN(C)Cc1ccccc1Sc1ccc(I)cc1N`, the figures for the brain uptake in data set [1] (2 h after i.v. injection) and in data set [1] (4 h after i.v. injection) were 0.42 % dose/brain and 0.11 % dose/brain, respectively. Moreover, the “Regional brain distribution HY (hypothalamus)” value in data set [2] (120 min) was found to be 0.44 % dose/g; in data set [2] (240 min), 0.13 % dose/g.
